Earlier results as cited in patent publication US11103684B2, “Systems, devices, and methods for treating a pulmonary disorder with an agent” (Holaira, Inc., priority 2013, dated 2021).

Conditions: cited from earlier work

CCCCC(CC)CCC(CC(C)C)OS(=O)(=O)O (stereo not shown)
Solubility in Water (mg/L): 50,000 mg/L
